From PubChem BioAssay AID652106 (National Center for Advancing Translational Sciences (NCATS), 2013)
Only a part is listed here, and it is no random draw. Some salts or complexes appear as unconnected parts, following the source record. Calls of active or inactive are those of the source. Calls come from the whole dose curve; as a rule, active = well fitted activation curve with a large enough effect; inconclusive = small, poorly fitted or top-dose-only effect; inactive = no such curve, though single readings can be large or run the other way.

Test: qHTS of alpha-syn Inhibitors; note: % of control where 0% means no effect; nearly all actives have a fitted effect of over 65% in size
Settings: Yeast expressing alpha-synuclein, BacTiter-Glo, 24 h; at 46.1 µM (top of the series) unless noted
Excerpt: The goal of this project is to identify new chemical probes capable of reversing the toxicity associated with the Parkinson disease-related protein, alpha-synuclein. Compounds will be selected on their ability to restore growth in yeast cells expressing toxic levels of alpha-synuclein. These compounds will provide a complementary approach to deciphering the tangled mechanisms of toxicity and protection that we have uncovered through genome-wide genetic screens and are beginning to uncover in a large-scale proteomics analysis with mass spectroscopy. To this end, a miniaturized assay was developed to be screened against the Molecular Libraries Small Molecule Repository (MLSMR) to discover alpha-synuclein inhibitors. Please note that in the set-up this yeast-based assay compounds that inhibit as alpha-syn, have a read-out as activators. NIH Chemical Genomics Center [NCGC] NIH Molecular Libraries Probe Centers Network [MLPCN] MLPCN Grant: NS060957 Assay Submitter (PI): Susan Lindquist, Whitehead Institute/MIT
Dispense 2.5 microL yeast galactose medium per 1536-well plate, pin compound, dispense 2.5 microL alpha-synuclein expressing yeast in galactose medium at OD600=0.02 (pregrown in raffinose medium to mid-log phase) per well, incubate for 24 hr at 30 deg C, and cell growth will be measured using 5 microL of Bactiter/Glo reagent to entire plate and read using Luminescence Protocol in ViewLux.
In the case of CCCOc1ccc(C(=O)NCC2(N(C)C)CCCCC2)cc1, the growth rescue (activation) is reported as inactive: 4.07%.
For O=c1[nH]c2ccccc2n1C1CCN(C(c2cc3ccccc3o2)c2nnnn2C2CCCC2)CC1 (configuration not stated), the growth rescue (activation) was inactive: 5.53%.
With ClCCN(CCCl)c1ccccc1 the growth rescue (activation) was inactive: 1.09%.
In the case of ClCCN(CCCl)c1ccc(C=C2C=CC=C2)cc1, the growth rescue (activation) is reported as inactive: 9.8%.
With O=C(O)C1(Nc2ccccc2)CCN(Cc2ccccc2)CC1 the growth rescue (activation) was inactive: 3.68%.
With CC(C)(C)OC(=O)N1CCC(Nc2ccccc2)CC1 the growth rescue (activation) was inactive: 11.8%.
For CN1CCC(Nc2ccc(F)c(Cl)c2)CC1, the growth rescue (activation) was inactive: 1.21%.
For CCOc1ncccc1C(=O)NCC1(N2CCOCC2)CCCCC1, the growth rescue (activation) was inactive: -6.07%.
With CN1CCC(Nc2ccc(Cl)cc2)CC1 the growth rescue (activation) was inactive: 2.12%.
For CCC(CO)(C(=O)OC1CN2CCC1CC2)c1ccccc1 (configuration not stated), the growth rescue (activation) was inactive: 2.65%.
For COc1cccc(C(=O)N(c2cc(C)cc(C)c2)C2CCN(C(=O)OC(C)(C)C)CC2)c1, the growth rescue (activation) was inactive: 0.671%.
With COc1cc(C(=O)NCC2(N3CCOCC3)CCCCC2)cc(OC)c1OC the growth rescue (activation) was inactive: 0.0685%.
In the case of COc1cc(OC)cc(C(=O)NCC2(N3CCOCC3)CCCCC2)c1, the growth rescue (activation) is reported as inactive: -0.899%.
For COc1cccc(C(c2nnnn2C2CCCC2)N2CCC(n3c(=O)[nH]c4ccccc43)CC2)c1OC (configuration not stated), the growth rescue (activation) was inactive: 1.3%.
In the case of Cc1ccc(NC2(C#N)CCN(Cc3ccccc3)CC2)cc1, the growth rescue (activation) is reported as inactive: 6.31%.
With Cc1ccc(Nc2c([N+](=O)[O-])cc([N+](=O)[O-])cc2[N+](=O)[O-])cc1 the growth rescue (activation) was inactive: 1.4%.
With Fc1ccccc1NC1CCN(Cc2ccccc2)CC1 the growth rescue (activation) was inactive: -0.582%.
With Cc1ccc(C(=O)NCC2(N3CCCCC3)CCCCC2)o1 the growth rescue (activation) was inactive: 1.33%.
With O=c1[nH]c2ccccc2n1C1CCN(C(c2ccnc3ccccc23)c2nnnn2C2CCCCC2)CC1 (configuration not stated) the growth rescue (activation) was inactive: 3.05%.
In the case of COc1cc(OC)cc(C(=O)NCC2(N3CCCCC3)CCCCC2)c1, the growth rescue (activation) is reported as inactive: 1.87%.
For CCC(c1nnnn1C1CCCCC1)N1CCC(n2c(=O)[nH]c3ccccc32)CC1 (configuration not stated), the growth rescue (activation) was inactive: 2.46%.
With CC(=O)N(c1ccccc1)C1CCNCC1 the growth rescue (activation) was inactive: 2.85%.
For COc1cccc(C(c2nnnn2C2CCCCC2)N2CCC(n3c(=O)[nH]c4ccccc43)CC2)c1OC (configuration not stated), the growth rescue (activation) was inactive: -0.27%.
In the case of Cn1c(=O)[nH]cc(N(CCCl)CCCl)c1=O, the growth rescue (activation) is reported as inactive: -5.72%.
For CN(C)c1ccc(C(=O)NCC2(N3CCCCC3)CCCCC2)cc1, the growth rescue (activation) was inactive: 2.29%.
For O=C(NCC1(N2CCCCC2)CCCCC1)c1ccco1, the growth rescue (activation) was inactive: 1.31% [at 1.84 µM].
For CC(C)(C)n1nnnc1C(c1ccnc2ccccc12)N1CCC(n2c(=O)[nH]c3ccccc32)CC1 (configuration not stated), the growth rescue (activation) was inactive: 4.3%.
For COc1ccc(C(c2nnnn2C2CCCCC2)N2CCC(n3c(=O)[nH]c4ccccc43)CC2)cc1 (configuration not stated), the growth rescue (activation) was inactive: 0.129%.
In the case of CCN1CCC(Nc2cccc(F)c2)CC1, the growth rescue (activation) is reported as inactive: 3.2%.
With Cc1ccccc1NC1(C#N)CCN(Cc2ccccc2)CC1 the growth rescue (activation) was inactive: -9.28%.
For CCOC(=O)C(CC)C1=NC(C)(C)Cc2ccccc21.O=[N+]([O-])c1cc([N+](=O)[O-])c(O)c([N+](=O)[O-])c1 (configuration not stated), the growth rescue (activation) was inactive: 1.17%.
In the case of CC(C)(C)OC(=O)N1CCC(N(C(=O)c2ccccc2)c2ccc(Cl)cc2)CC1, the growth rescue (activation) is reported as inactive: 15.2%.
With O=C(NCC1(N2CCOCC2)CCCCC1)c1ccc([N+](=O)[O-])cc1 the growth rescue (activation) was inactive: 29.6%.
For O=C(NCC1(N2CCOCC2)CCCCC1)c1ccccc1[N+](=O)[O-], the growth rescue (activation) was inactive: 1.82%.
For N#Cc1ccc(C(=O)NCC2(N3CCCCC3)CCCCC2)cc1, the growth rescue (activation) was inactive: 8.55%.
For O=c1[nH]c2ccccc2n1C1CCN(C(c2ccccc2)c2nnnn2C2CCCC2)CC1 (configuration not stated), the growth rescue (activation) was inactive: 1.85%.
With CCCN1CCC(Nc2cc(OC)cc(OC)c2)CC1 the growth rescue (activation) was inactive: -0.562%.
For Cc1cc(N(CCCl)CCCl)ccc1C=O, the growth rescue (activation) was inactive: 7.43%.
With O=C(NCC1(N2CCOCC2)CCCCC1)c1ccccc1 the growth rescue (activation) was inactive: -1.7%.
For c1ccc(CN2CCC(Nc3ccccc3)CC2)cc1, the growth rescue (activation) was inactive: 5.54%.
In the case of CN(C)C1(CNC(=O)c2cccc(C#N)c2)CCCCC1, the growth rescue (activation) is reported as inactive: 5.94%.
For O=c1[nH]c2ccccc2n1C1CCN(C(c2ccnc3ccccc23)c2nnnn2C2CCCC2)CC1 (configuration not stated), the growth rescue (activation) was inactive: -0.561%.
With COc1ccc(C(=O)NCC2(N3CCOCC3)CCCCC2)cc1OC the growth rescue (activation) was inactive: -7.95%.
In the case of O=Cc1ccc(N(CCCl)CCCl)cc1, the growth rescue (activation) is reported as inactive: -22.2%.
With O=c1[nH]c2ccccc2n1C1CCN(C(c2cccs2)c2nnnn2C2CCCCC2)CC1 (configuration not stated) the growth rescue (activation) was inactive: 5.78%.
In the case of O=C(NCC1(N2CCOCC2)CCCCC1)c1cc(Br)ccc1Cl, the growth rescue (activation) is reported as inactive: 14.2%.
In the case of COc1cc(C(=O)NCC2(N3CCOCC3)CCCCC2)cc(OC)c1C, the growth rescue (activation) is reported as inactive: -0.495%.
For CCCCn1nnnc1C(c1ccccc1)N1CCC(n2c(=O)[nH]c3ccccc32)CC1 (configuration not stated), the growth rescue (activation) was inactive: 7.12%.
With CCCCn1nnnc1C(c1cccc(OC)c1OC)N1CCC(n2c(=O)[nH]c3ccccc32)CC1 (configuration not stated) the growth rescue (activation) was inactive: -4.43%.
In the case of O=c1[nH]c2ccccc2n1C1CCN(C(c2cccs2)c2nnnn2C2CCCC2)CC1 (configuration not stated), the growth rescue (activation) is reported as inactive: 0.462%.
In the case of O=C(O)c1cccc(Nc2c([N+](=O)[O-])cc([N+](=O)[O-])cc2[N+](=O)[O-])c1, the growth rescue (activation) is reported as inactive: 15.6%.
With O=C(OC1CN2CCC1CC2)C1c2ccccc2C=Cc2ccccc21 (configuration not stated) the growth rescue (activation) was inactive: -4.43%.
With CCc1cc(C(=O)NCC2(N3CCCCC3)CCCCC2)sc1C the growth rescue (activation) was inactive: 0.52%.
With N/C(=N\O)c1c(N)no[n+]1[O-] the growth rescue (activation) was inactive: -7.11%.
In the case of COc1cccc(C(c2nnnn2C(C)(C)C)N2CCC(n3c(=O)[nH]c4ccccc43)CC2)c1OC (configuration not stated), the growth rescue (activation) is reported as inactive: 1.47%.
With CCOC(=O)N1CCC(Nc2ccc(C)cc2)CC1 the growth rescue (activation) was inactive: -7.07%.
For CCCCn1nnnc1C(c1ccnc2ccccc12)N1CCC(n2c(=O)[nH]c3ccccc32)CC1 (configuration not stated), the growth rescue (activation) was inactive: 0.319%.
For CCC(c1nnnn1C(C)(C)C)N1CCC(n2c(=O)[nH]c3ccccc32)CC1 (configuration not stated), the growth rescue (activation) was inactive: 0.993%.
In the case of O=C(NCC1(N2CCOCC2)CCCCC1)c1cc(F)c(F)cc1Cl, the growth rescue (activation) is reported as inactive: -1.5%.
With COc1cc(OC)c(C(=O)NCC2(N(C)C)CCCCC2)cc1OC the growth rescue (activation) was inactive: -4.02%.
For CN(C)c1cccc(C(=O)NCC2(N3CCCCC3)CCCCC2)c1, the growth rescue (activation) was inactive: -0.0272%.
With O=[N+]([O-])c1cc([N+](=O)[O-])c(OC2CCCCC2O)c([N+](=O)[O-])c1 (configuration not stated) the growth rescue (activation) was inactive: 7.83%.
For COc1ccc(CN(CCCl)CCCl)cc1Cl, the growth rescue (activation) was inactive: 2.28%.
In the case of CCCCn1nnnc1C(c1ccccc1OC(F)(F)F)N1CCC(n2c(=O)[nH]c3ccccc32)CC1 (configuration not stated), the growth rescue (activation) is reported as inactive: 11.5%.
For CC(C)c1ccc(NC2CCN(C(=O)OC(C)(C)C)CC2)cc1, the growth rescue (activation) was inactive: 5%.
For CCCOc1ccc(C(=O)NCC2(N(C)C)CCCCC2)cc1OC, the growth rescue (activation) was inactive: -0.129%.
With O=C(NCC1(N2CCOCC2)CCCCC1)c1ccccc1Br the growth rescue (activation) was inactive: 4.68%.
With Cc1ccc(C(=O)NCC2(N(C)C)CCCCC2)o1 the growth rescue (activation) was inactive: -1.77%.
With COc1ccc(C(c2nnnn2C2CCCC2)N2CCC(n3c(=O)[nH]c4ccccc43)CC2)cc1 (configuration not stated) the growth rescue (activation) was inactive: 5.32%.
In the case of O=[N+]([O-])c1cc([N+](=O)[O-])c(Nc2ccc(Cl)cc2)c([N+](=O)[O-])c1, the growth rescue (activation) is reported as inactive: -36.7%.
For O=C(NCC1(N2CCCCC2)CCCCC1)c1cncc(Br)c1, the growth rescue (activation) was inactive: -3.76%.
With COc1ccc2c(c1O)-c1c(O)c(OC)cc3c1[C@H](C2)[N+](C)(C)CC3.O=[N+]([O-])c1cc([N+](=O)[O-])c([O-])c([N+](=O)[O-])c1[O-] the growth rescue (activation) was inactive: -2.26%.
With CN1CCC(Nc2cccc(F)c2)CC1 the growth rescue (activation) was inactive: 2.52%.
In the case of O=C(OC1CN2CCC1CC2)c1ccc([N+](=O)[O-])cc1 (configuration not stated), the growth rescue (activation) is reported as inactive: 10.5%.
For CCOc1ccc(C(=O)NCC2(N3CCOCC3)CCCCC2)cc1, the growth rescue (activation) was inactive: 1.37%.
In the case of O=C(NCC1(N2CCCCC2)CCCCC1)c1cccc([N+](=O)[O-])c1, the growth rescue (activation) is reported as inactive: -5.06%.
With CSc1ccc(C(=O)NCC2(N3CCOCC3)CCCCC2)cc1 the growth rescue (activation) was inactive: -5.27%.
With N#CC1(Nc2ccccc2)CCN(CCc2ccccc2)CC1 the growth rescue (activation) was inactive: -7.97%.
For O=c1[nH]c2ccccc2n1C1CCN(C(c2ccccc2OC(F)(F)F)c2nnnn2C2CCCC2)CC1 (configuration not stated), the growth rescue (activation) was inactive: 16.3%.
With CCN1CCC(Nc2ccc(Cl)cc2)CC1 the growth rescue (activation) was inactive: 3.05%.
For O=C(NCC1(N2CCCCC2)CCCCC1)c1ccc(OC(F)F)cc1, the growth rescue (activation) was inactive: 6.33%.
In the case of CCCCn1nnnc1C(c1cccc2ccccc12)N1CCC(n2c(=O)[nH]c3ccccc32)CC1 (configuration not stated), the growth rescue (activation) is reported as inactive: 1.64%.
In the case of COc1ccc(NC2CCN(C(=O)OC(C)(C)C)CC2)cc1, the growth rescue (activation) is reported as inactive: 0.0226%.
For CC(C)c1ccc(C(=O)NCC2(N3CCOCC3)CCCCC2)cc1, the growth rescue (activation) was inactive: -11.6%.
For CN1CCN(CCOC(=O)C(O)(c2ccccc2)c2ccccc2)CC1, the growth rescue (activation) was inactive: 3.79%.
For O=C(NCC1(N2CCOCC2)CCCCC1)c1cc(=O)[nH]c2ccccc12, the growth rescue (activation) was inactive: 3.19%.
With COc1cc(C(=O)NCC2(N3CCCCC3)CCCCC2)ccc1OC(F)F the growth rescue (activation) was inactive: -0.351%.
For O=C(NCC1(N2CCCCC2)CCCCC1)c1cccc(C(F)(F)F)c1, the growth rescue (activation) was inactive: -8.54%.
In the case of O=[N+]([O-])c1cc([N+](=O)[O-])c(NCC2CCS(=O)(=O)C2)c([N+](=O)[O-])c1 (configuration not stated), the growth rescue (activation) is reported as inactive: 1.67%.
For CCOC(=O)N1CCC(Nc2ccc(F)cc2)CC1, the growth rescue (activation) was inactive: -3.67%.
In the case of COc1ccc(NC2CCN(CCc3ccccc3)CC2)c(OC)c1, the growth rescue (activation) is reported as inactive: 2.87%.
In the case of O=C(NCC1(N2CCCCC2)CCCCC1)c1ccc(F)cc1, the growth rescue (activation) is reported as inactive: 23.9%.
